CycPeptMPDB entries from one study

Source: CycPeptMPDB (Li et al. 2023), which took these values from Frost et al. 2016, doi:10.1038/nchem.2636.

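Conditions beyond the assay type are not listed; see the original paper. Other peptides of the study may be missing here. Peptides that the database sets to -10, its floor, are left out.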

PAMPA is the parallel artificial membrane permeability assay, which has no cells and reads passive diffusion.
Permeability is in 10^-6 cm/s, converted from the database's log10 values; higher is more permeable.

PAMPA (10^-6 cm/s)	compound
0.0087	CC(C)C[C@@H]1NC(=O)CNC(=O)[C@@H]2CCCN2C(=O)[C@H](C)NC(=O)[C@H](Cc2ccccc2)NC(=O)[C@H](C)NC1=O
0.074	CC(C)C[C@@H]1NC(=O)[C@H](C)NC(=O)[C@@H]2CCCN2C(=O)[C@H](C)NC(=O)[C@H](Cc2ccccc2)NC(=O)CNC1=O
11	CC(C)C[C@@H]1NC(=O)[C@H](CC(C)C)NC(=O)[C@H](Cc2ccccc2)NC(=O)[C@@H]2CCCN2C(=O)[C@H](C)NC(=O)[C@H](Cc2ccccc2)NC1=O
5.4	CC(C)C[C@@H]1NC(=O)CNC(=O)[C@@H]2CCCN2[C@H](Cc2ccccc2)C2=NN=C(O2)[C@H](Cc2ccccc2)NC(=O)CNC1=O
0.047	CC(C)C[C@@H]1NC(=O)[C@H](C)NC(=O)[C@@H]2CCCN2C(=O)[C@H](C)NC(=O)[C@H](Cc2ccccc2)NC(=O)[C@H](C)NC1=O
3.8	CC[C@@H]1C2=NN=C(O2)[C@H](Cc2ccccc2)NC(=O)CNC(=O)[C@H](CC(C)C)NC(=O)[C@H](C)NC(=O)[C@@H]2CCCN12
1.1	CC[C@@H]1C2=NN=C(O2)[C@H](Cc2ccccc2)NC(=O)[C@H](C)NC(=O)[C@H](CC(C)C)NC(=O)CNC(=O)[C@@H]2CCCN12
5.4	CC(C)C[C@@H]1NC(=O)CNC(=O)[C@@H]2CCCN2[C@H](CC(C)C)C2=NN=C(O2)[C@H](Cc2ccccc2)NC(=O)CNC1=O
13	CC[C@@H]1C2=NN=C(O2)[C@H](Cc2ccccc2)NC(=O)[C@H](CC(C)C)NC(=O)[C@H](CC(C)C)NC(=O)[C@H](Cc2ccccc2)NC(=O)[C@@H]2CCCN12
3.4	CC[C@@H]1C2=NN=C(O2)[C@H](Cc2ccccc2)NC(=O)[C@H](C)NC(=O)[C@H](CC(C)C)NC(=O)[C@H](C)NC(=O)[C@@H]2CCCN12

Excerpt, the opening 2 entries:

compound	PAMPA (10^-6 cm/s)
CC(C)C[C@@H]1NC(=O)CNC(=O)[C@@H]2CCCN2C(=O)[C@H](C)NC(=O)[C@H](Cc2ccccc2)NC(=O)[C@H](C)NC1=O	0.0087
CC(C)C[C@@H]1NC(=O)[C@H](C)NC(=O)[C@@H]2CCCN2C(=O)[C@H](C)NC(=O)[C@H](Cc2ccccc2)NC(=O)CNC1=O	0.074